The source of these data is patent publication US20220395468A1, “Transdermal Drug Delivery Systems for Administration of a Therapeutically Effective Amount of Lenalidomide and Other Immunomodulatory Agents” (Starton Therapeutics, Inc., priority 2021, published 2022).

The conditions of this data set: in two polar aprotic solvents N-methyl-2-pyrrolidone (NMP) and dimethyl sulfoxide.
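Further: part of a solubility screen of the drug across over 50 solvents and polymers, with emphasis on polar aprotic solvents.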

On to `Nc1cccc2c1CN(C1CCC(=O)NC1=O)C2=O` (stereo not shown) [Lenalidomide, 3-(4-amino-1-3-dihydro-1-oxo-2H-isoindol-2yl)-2,6-piperidinedione], for which the solubility entry was “More than 20%”.
